pKi: −log10 of the molar value.
Biological target: human α-thrombin (Homo sapiens (Human), UniProt P00734)
Experiment: In vitro assay for determining proteinase inhibition (thrombin Ki)
Type: biochemical
Conditions: 25° C., 0.05 M TRIS buffer pH 7.4, 0.15 M NaCl, 0.1% PEG; competitive inhibition assumed
Description: NMR determinations were made using 400 MHz field strength. Ki data was obtained according to the procedure described in Lewis, et al. Thromb. […] Reactions sensitive to moisture or air were performed under nitrogen or argon using anhydrous solvents and reagents. […] Typically, the analytical LC-MS system used consisted of a Waters ZQ platform with electrospray ionization in positive ion detection mode with an Agilent 1100 series HPLC with autosampler. The column was usually a Water Xterra MS C18, 3.0×50 mm, 5 μm. The flow rate was 1 mL/min, and the injection volume was 10 μL. UV detection was in the range 210-400 nm. […] Preparative HPLC purifications were usually performed using a mass spectrometry directed system. […] The mobile phases consisted of mixtures of acetonitrile (10-100%) in water containing 0.1% TFA. Flow rates were maintained at 50 mL/min, the injection volume was 1800 μL, and the UV detection range was 210-400 nm. Mobile phase gradients were optimized for the individual compounds. Reactions performed using microwave irradiation were normally carried out using an Emrys Optimizer manufactured by Personal Chemistry, or an Initiator manufactured by Biotage. Concentration of solutions was carried out on a rotary evaporator under reduced pressure. […]
Concentrations of stock solutions of Z-GPR-afc were determined from measurements of absorbance at 380 nm of the 7-amino-4-trifluoromethyl coumarin produced upon complete hydrolysis of an aliquot of the stock solution by thrombin.
Activity assays were performed by diluting a stock solution of substrate at least tenfold to a final concentration ≦0.1 Km into a solution containing enzyme or enzyme equilibrated with inhibitor. Times required to achieve equilibration between enzyme and inhibitor were determined in control experiments. Initial velocities of product formation in the absence (Vo) or presence of inhibitor (Vi) were measured. […]

Row | SMILES | pKi
1 | CC1(C)C[C@]1(O)C(=O)N1CCC[C@H]1C(=O)NCc1cc(Cl)ccc1CN (single isomer, unassigned) [Compound 37-11b] | 7.19
2 | CC1(C)CC1(O)C(=O)N1CCC[C@H]1C(=O)NCc1cc(Cl)ccc1CN (single isomer, unassigned) [Compound 37-11a] | 6.14
3 | NCc1ccc(Cl)cc1CNC(=O)[C@@H]1CCCN1C(=O)C1(N)CCc2cccnc21 (single isomer, unassigned) [Compound 29-9b, tris(2,2,2-trifluoroacetate)] | 7.00
